Data on two compounds can be found in ChEMBL document CHEMBL1817572, “New, potent, selective, and short-acting peptidic V1a receptor agonists” (J Med Chem, 2011).

Chains of the proteins cited; added tags and fusions are not shown.
UniProt P37288, whole entry, looked up: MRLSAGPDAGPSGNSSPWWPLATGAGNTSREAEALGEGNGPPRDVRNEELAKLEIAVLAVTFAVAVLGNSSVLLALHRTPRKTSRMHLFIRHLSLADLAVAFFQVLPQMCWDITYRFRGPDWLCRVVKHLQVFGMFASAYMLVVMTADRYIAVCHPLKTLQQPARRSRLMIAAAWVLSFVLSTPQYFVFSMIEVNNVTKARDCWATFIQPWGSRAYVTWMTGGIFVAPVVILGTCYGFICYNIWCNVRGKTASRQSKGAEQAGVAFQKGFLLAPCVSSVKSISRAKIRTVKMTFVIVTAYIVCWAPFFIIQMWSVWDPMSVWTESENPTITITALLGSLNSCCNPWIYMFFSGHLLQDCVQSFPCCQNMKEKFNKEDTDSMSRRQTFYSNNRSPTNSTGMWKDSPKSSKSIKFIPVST

In test [1] the target is T1, Vasopressin V1b receptor (Homo sapiens, UniProt P47901).
T1 sequence (P47901 whole entry): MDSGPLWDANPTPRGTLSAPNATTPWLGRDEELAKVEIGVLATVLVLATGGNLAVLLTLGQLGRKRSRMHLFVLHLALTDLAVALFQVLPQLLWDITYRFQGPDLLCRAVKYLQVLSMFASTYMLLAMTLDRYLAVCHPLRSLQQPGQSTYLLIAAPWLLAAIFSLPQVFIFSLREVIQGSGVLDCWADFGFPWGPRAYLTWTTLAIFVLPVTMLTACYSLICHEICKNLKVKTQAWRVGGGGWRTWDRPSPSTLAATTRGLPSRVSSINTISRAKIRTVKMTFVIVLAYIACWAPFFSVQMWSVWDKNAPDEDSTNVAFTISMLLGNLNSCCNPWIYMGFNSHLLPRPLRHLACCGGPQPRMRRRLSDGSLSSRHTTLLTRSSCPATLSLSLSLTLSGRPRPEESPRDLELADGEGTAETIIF
Kind of test: Agonist activity at recombinant human vasopressin V1b receptor expressed in Flp-In-293 cells by luciferase reporter gene assay. Type of test: functional, cell-based. Put shortly:
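Reporter gene assays in HEK293 cells transiently cotransfected with V1a (human or rat) or human V2 receptor vector plus NFAT-luciferase (V1a) or CRE-luciferase (V2) reporter; V1b in Flp-In-293 stably expressing receptor, OT in CHO-K1 stably expressing receptor, both transiently transfected with NFAT-luciferase. Two days post-transfection, peptides added for 5 h at 37 °C, lysis with luciferin, luminescence read.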

In test [2] the target is T2, Oxytocin receptor (Homo sapiens, UniProt P30559).
T2 sequence (P30559 whole entry): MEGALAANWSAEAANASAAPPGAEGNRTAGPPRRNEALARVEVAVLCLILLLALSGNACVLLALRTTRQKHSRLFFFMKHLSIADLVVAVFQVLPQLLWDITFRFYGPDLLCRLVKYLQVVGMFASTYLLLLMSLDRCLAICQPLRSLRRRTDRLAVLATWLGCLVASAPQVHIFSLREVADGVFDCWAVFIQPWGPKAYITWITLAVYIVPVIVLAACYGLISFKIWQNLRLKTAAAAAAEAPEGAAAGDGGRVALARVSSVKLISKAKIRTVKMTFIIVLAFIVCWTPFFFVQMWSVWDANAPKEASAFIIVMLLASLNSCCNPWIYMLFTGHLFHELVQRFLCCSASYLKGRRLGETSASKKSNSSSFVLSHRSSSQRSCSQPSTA
Kind of test: Agonist activity at human OT receptor expressed in CHO-K1 cells by luciferase reporter gene assay. It is filed as functional, cell-based.

The species named for test [3] is Homo sapiens. Put plainly: Selectivity ratio of EC50 for human oxytocin receptor to EC50 for human vasopressin V1a receptor.
The species entered for test [4] is Homo sapiens. Put plainly: Selectivity ratio of EC50 for human vasopressin V1b receptor to EC50 for human vasopressin V1a receptor.
For test [5], the target named is Vasopressin V1a/V2 (Homo sapiens) (UniProt P30518+P37288). Kind of test: Selectivity ratio of EC50 for human vasopressin V2 receptor to EC50 for human vasopressin V1a receptor.
In test [6] the target is Vasopressin V2 receptor (Homo sapiens, UniProt P30518). Put plainly: Agonist activity at recombinant human vasopressin V2 receptor expressed in HEK293 cells by luciferase reporter gene assay. It is filed as functional, cell-based.
Test [7] deals with Vasopressin V1a receptor (Homo sapiens, UniProt P37288). Kind of test: Agonist activity at recombinant human vasopressin V1a receptor expressed in HEK293 cells by luciferase reporter gene assay. Type of test: functional, cell-based.

Molecules are shown by their SMILES.

Turning to `CC[C@H](C)[C@@H]1NC(=O)[C@H](CC(C)(C)C)NC(=O)[C@@H](N)CSSC[C@@H](C(=O)N2CCC[C@H]2C(=O)N[C@@H](CCN)C(=O)NCC(N)=O)NC(=O)[C@H](CC(N)=O)NC(=O)[C@H](CCC(N)=O)NC1=O`, the EC50 in test [1] is 44 nM; in test [2] (cho-k1, read-out: EC50), greater than 10 µM; in test [2] (read-out: pEC50 (converted)), greater than 10 µM; in test [6], 470 nM; in test [7], 11 nM. The values for the Ratio EC50 in test [3], in test [4] and in test [5] were greater than 900, 4 and 42, respectively.
`CC[C@H](C)[C@@H]1NC(=O)[C@H](CC(C)C)NC(=O)[C@@H](N)CSSC[C@@H](C(=O)N2CCC[C@H]2C(=O)N[C@@H](CCN)C(=O)NCC(N)=O)NC(=O)[C@H](CC(N)=O)NC(=O)[C@H](CCC(N)=O)NC1=O`: the EC50 in test [1] is 250 nM; in test [2] (cho-k1, read-out: EC50), greater than 10 µM; in test [2] (read-out: pEC50 (converted)), greater than 10 µM; in test [6], 1200 nM; in test [7], 13 nM. For the same compound, the figures for the Ratio EC50 in test [3], in test [4] and in test [5] were greater than 760, 19 and 92, respectively.
